The chains behind the UniProt entries cited, without tags or fusion partners. Where a name states a change or a piece, a line headed by the entry shows the natural chain unless it says otherwise.
UniProt Q13255: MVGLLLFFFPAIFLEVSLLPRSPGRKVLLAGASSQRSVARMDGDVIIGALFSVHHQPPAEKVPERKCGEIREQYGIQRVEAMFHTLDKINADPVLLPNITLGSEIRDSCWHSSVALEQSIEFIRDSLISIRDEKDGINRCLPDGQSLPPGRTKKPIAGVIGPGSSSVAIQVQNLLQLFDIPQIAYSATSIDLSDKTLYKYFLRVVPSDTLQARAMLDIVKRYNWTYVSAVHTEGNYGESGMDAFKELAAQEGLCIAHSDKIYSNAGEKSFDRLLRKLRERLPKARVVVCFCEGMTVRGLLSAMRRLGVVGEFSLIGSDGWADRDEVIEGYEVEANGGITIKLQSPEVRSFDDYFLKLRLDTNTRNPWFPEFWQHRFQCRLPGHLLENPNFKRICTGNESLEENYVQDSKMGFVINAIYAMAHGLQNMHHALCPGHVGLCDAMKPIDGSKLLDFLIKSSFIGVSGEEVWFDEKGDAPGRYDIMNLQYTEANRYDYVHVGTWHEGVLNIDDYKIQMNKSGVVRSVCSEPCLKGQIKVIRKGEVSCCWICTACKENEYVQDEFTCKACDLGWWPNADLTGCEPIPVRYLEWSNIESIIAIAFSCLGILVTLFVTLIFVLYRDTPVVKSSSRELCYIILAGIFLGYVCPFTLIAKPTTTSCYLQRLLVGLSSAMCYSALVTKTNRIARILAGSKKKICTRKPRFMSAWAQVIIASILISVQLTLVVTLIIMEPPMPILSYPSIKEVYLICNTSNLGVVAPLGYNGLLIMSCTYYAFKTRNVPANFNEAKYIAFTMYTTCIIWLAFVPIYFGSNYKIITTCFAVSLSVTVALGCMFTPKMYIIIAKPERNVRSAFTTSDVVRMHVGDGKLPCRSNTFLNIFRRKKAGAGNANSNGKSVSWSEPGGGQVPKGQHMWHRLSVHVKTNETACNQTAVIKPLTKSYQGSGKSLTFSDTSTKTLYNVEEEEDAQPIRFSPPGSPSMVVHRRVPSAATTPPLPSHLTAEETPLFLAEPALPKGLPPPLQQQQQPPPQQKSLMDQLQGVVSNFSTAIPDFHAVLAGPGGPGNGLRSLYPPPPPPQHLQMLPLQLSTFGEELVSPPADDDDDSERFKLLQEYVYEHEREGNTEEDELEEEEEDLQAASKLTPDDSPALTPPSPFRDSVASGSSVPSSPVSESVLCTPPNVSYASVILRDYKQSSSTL

According to BindingDB's records for doi:10.1046/j.1471-4159.2000.0752590.x (F. Hoffmann-La Roche, 2000):

Target: Metabotropic glutamate receptor 1 (Homo sapiens, UniProt Q13255)

N[C@@]1(C(=O)O)CC[C@H](C(=O)O)C1 [1S, 3R-ACPD]
Ki: 3.2 µM
